From patent US10093642B2, “Multitarget hedgehog pathway inhibitors and uses thereof” (UNIVERSITA' DEGLI STUDI DI SIENA, priority 2013, dated 2018) come the findings set out here.

In this experiment the target is T1, SMO receptor (UniProt P56726).
T1 construct: fused on or other part: Possibly a C-terminal Myc3 tag, if the construct is Smo-Myc3 of Chen et al. 2002
As to the kind of experiment: Displacement assay with Bodipy-cyclopamine in HEK293 cells transfected with SMO. In kind it is binding. Conditions: positive control, 1 μM.

As to “3-Keto-N-(aminoethyl-aminocaproyl-dihydrocinnamoyl)-cyclopamine [KAAD, reference compound]”, the “Bodipy-cyclopamine binding to cells expressing SMO” value is recorded as “abrogated BC binding”.
